Columns and labels:
HLA-B*5301 = HLA-B*5301 (Human); assay: competition vs 125I probe, purified HLA
HLA-B*5401 = HLA-B*5401 (Human); assay: competition vs 125I probe, purified HLA
HLA-B*5101 = HLA-B*5101 (Human); assay: competition vs 125I probe, purified HLA
HLA-A*6801 = HLA-A*6801 (human); assay: competition with 125I probe peptide, purified HLA class I
HLA-A*0301 = HLA-A*0301 (human); assay: as above
HLA-A*3101 = HLA-A*3101 (human); assay: as above

IC50 (HLA-B*5301) [µM] | IC50 (HLA-B*5401) [µM] | Binder | also measured
7.75 |  | FPALNKMFCQL [48.0234 FPALNKMFCQL (p53.127.F1)] | 
 | 16.7 | FPQPKKKPI [48.0127 FPQPKKKPI (p53)] | 
 |  | FPALNKMF [48.0055 FPALNKMF (p53.127.F1)] | IC50 (HLA-B*5101): 18.3 µM
 |  | KVFBQLAK (B at position 4 is alpha-amino butyric acid (in place of cysteine)) [1371.18 KVFBQLAK p53.132.V2B4] | IC50 (HLA-A*6801): 8.89 µM
23.2 | 2.44 | FPGTRVRAI [48.0123 FPGTRVRAI (p53.152.F1)] | 
 |  | RVBABPGRDRK (B at positions 3 and 5 is alpha-amino butyric acid (in place of cysteine)) [1371.31 RVBABPGRDRK p53.273.B3B5K11] | IC50 (HLA-A*0301): 0.314 µM; IC50 (HLA-A*3101): 4.62 µM

Reference: patent publication US20050196403A1 (published 2005)
